The values that follow are results of earlier work, collected in PMC3758386 (Psychopharmacology, 2013).

This data set concerns the target NET. To be noted: read-out: Ki NET; ref Woolverton et al., Psychopharmacology (2001); cited from earlier work.

Regarding `CN1C2CCC1CC(OC(c1ccc(Cl)cc1)c1ccc(Cl)cc1)C2` (stereo not drawn) [4,4-diCl-BZT, 4′-chloro-4″-chloro-3α-(diphenylmethoxy)tropane], the Ki (commonly the dissociation constant of the complex between target and ligand, obtained from inhibition or displacement) was 2980 ± 182 nM.
